Measurements from patent US9376425B2, “Heterocyclic compounds as MDM2 inhibitors for the treatment of cancer” (AMGEN INC., priority 2011, dated 2016).

Sequences of proteins named here, by UniProt entry; tags and fusion partners are left off. Residues count along the entry.
UniProt Q00987, 1-188 limits assumed: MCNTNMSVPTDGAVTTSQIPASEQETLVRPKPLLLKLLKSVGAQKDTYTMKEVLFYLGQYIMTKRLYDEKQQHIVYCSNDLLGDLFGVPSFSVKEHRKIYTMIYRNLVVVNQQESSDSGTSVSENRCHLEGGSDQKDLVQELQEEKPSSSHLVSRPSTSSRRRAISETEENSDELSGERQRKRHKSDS

Target: human MDM2 (GST-hMDM2 1-188), interaction with biotinylated-p53 (1-83) (Homo sapiens, UniProt Q00987)
Assay: improved HTRF assay (HTRF2 assay), inhibition of HDM2-p53 interaction
Settings: read-out: HTRF2 IC50; 0.2 nM GST-hMDM2, 0.5 nM biotinylated-p53, 100 mM KF

Q: For CC(C)S(=O)(=O)C(C)[C@H](C1CC1)N1C(=O)C(CC(=O)O)O[C@H](c2cccc(Cl)c2)[C@H]1c1ccc(Cl)cc1 (single isomer, unassigned), which IC50 is on record?
A: 3 nM
